The text below walks through data of paper PMC9386018, “A lymphatic-absorbed multi-targeted kinase inhibitor for myelofibrosis therapy” (Nature Communications, 2022).

Values joined by “and” are separate entries in the source; they are usually repeats but may differ in a detail not shown here. Identical values can stand only once.

For the experiment, the target named is Target kinase isoforms (PI3K, mTOR, RAF, MEK) (Homo sapiens, UniProt P42345). Kind of experiment: Target kinase isoforms 10-point IC50 determination (Supplementary Fig. 7).

Turning to `COc1ncc(-c2ccc3nccc(-c4ccnnc4)c3c2)cc1NS(=O)(=O)c1ccc(F)cc1F` [GSK2126458], the “Kinase Activity (%) mTOR” value is 92% and 91% and 94% (concentration 0.495 nM, 0.000495 µM); 82% and 84% and 81% and 83% (concentration 1.52 nM, 0.00152 µM); 40% and 43% (concentration 4.57 nM, 0.00457 µM); -2% and -1% (concentration 41.2 nM, 0.0412 µM); 0% and -2% and -1% (concentration 123 nM, 0.123 µM); -2% and 0% and -3% and -1% (concentration 1110 nM, 1.11 µM). Also, the “Kinase Activity (%) mTOR” value was -1% and -2% (concentration 3330 nM, 3.33 µM); -1% and -2% and 0% (concentration 10000 nM, 10 µM).
